Tests used:
A549 [1] = assay: Western blot of HIF-1α, fibrosis and EMT markers in A549; assay type: cell-based, human
A549 [2] = assay: Scratch migration assay; assay type: cell-based, human; conditions: CoCl2 or FG-4592 treatment

Q: With `N[C@@H](Cc1ccc([N+]([O-])(CCCl)CCCl)cc1)C(=O)O` as the compound, how does the “fibronectin and COL4A6 expression (Western blot)” value (A549 [1]; TGF-β1-treated A549, PX-478 co-treatment) read?
A: significantly suppressed fibrosis

Q: For CoCl2, which “cell migration (wound healing)” value (A549 [2]) is on record?
A: significant increase in cell migration

Q: What about the “fibrosis-associated proteins (fibronectin, α-SMA, COL3A1, COL4A6)” value (A549 [1]; A549, ambient air, CoCl2 200 μM, FG-4592 50 μM) of the same compound?
A: increased expression of fibrosis-associated proteins
